Experimental data as given in PubChem BioAssay AID2662 (National Center for Advancing Translational Sciences (NCATS), 2010).
Where “and” joins values, the source holds several entries; their conditions need not be identical. Equal values may be shown once. The entries are a selection whose mix differs from that of the whole data set. Calls of active or inactive are those of the source. Calls come from the whole dose curve; as a rule, active = well fitted inhibition curve with a large enough effect in the polarisation, with a control signal flat (not every such curve was filed as active); inconclusive = small, poorly fitted or top-dose-only effect, or effect the other way, or a change in a side signal; inactive = no such curve, though single readings can be large or run the other way; the % refers to the polarisation.

Chains of the proteins cited; added tags and fusions are not shown.
UniProt Q03164, whole entry, looked up: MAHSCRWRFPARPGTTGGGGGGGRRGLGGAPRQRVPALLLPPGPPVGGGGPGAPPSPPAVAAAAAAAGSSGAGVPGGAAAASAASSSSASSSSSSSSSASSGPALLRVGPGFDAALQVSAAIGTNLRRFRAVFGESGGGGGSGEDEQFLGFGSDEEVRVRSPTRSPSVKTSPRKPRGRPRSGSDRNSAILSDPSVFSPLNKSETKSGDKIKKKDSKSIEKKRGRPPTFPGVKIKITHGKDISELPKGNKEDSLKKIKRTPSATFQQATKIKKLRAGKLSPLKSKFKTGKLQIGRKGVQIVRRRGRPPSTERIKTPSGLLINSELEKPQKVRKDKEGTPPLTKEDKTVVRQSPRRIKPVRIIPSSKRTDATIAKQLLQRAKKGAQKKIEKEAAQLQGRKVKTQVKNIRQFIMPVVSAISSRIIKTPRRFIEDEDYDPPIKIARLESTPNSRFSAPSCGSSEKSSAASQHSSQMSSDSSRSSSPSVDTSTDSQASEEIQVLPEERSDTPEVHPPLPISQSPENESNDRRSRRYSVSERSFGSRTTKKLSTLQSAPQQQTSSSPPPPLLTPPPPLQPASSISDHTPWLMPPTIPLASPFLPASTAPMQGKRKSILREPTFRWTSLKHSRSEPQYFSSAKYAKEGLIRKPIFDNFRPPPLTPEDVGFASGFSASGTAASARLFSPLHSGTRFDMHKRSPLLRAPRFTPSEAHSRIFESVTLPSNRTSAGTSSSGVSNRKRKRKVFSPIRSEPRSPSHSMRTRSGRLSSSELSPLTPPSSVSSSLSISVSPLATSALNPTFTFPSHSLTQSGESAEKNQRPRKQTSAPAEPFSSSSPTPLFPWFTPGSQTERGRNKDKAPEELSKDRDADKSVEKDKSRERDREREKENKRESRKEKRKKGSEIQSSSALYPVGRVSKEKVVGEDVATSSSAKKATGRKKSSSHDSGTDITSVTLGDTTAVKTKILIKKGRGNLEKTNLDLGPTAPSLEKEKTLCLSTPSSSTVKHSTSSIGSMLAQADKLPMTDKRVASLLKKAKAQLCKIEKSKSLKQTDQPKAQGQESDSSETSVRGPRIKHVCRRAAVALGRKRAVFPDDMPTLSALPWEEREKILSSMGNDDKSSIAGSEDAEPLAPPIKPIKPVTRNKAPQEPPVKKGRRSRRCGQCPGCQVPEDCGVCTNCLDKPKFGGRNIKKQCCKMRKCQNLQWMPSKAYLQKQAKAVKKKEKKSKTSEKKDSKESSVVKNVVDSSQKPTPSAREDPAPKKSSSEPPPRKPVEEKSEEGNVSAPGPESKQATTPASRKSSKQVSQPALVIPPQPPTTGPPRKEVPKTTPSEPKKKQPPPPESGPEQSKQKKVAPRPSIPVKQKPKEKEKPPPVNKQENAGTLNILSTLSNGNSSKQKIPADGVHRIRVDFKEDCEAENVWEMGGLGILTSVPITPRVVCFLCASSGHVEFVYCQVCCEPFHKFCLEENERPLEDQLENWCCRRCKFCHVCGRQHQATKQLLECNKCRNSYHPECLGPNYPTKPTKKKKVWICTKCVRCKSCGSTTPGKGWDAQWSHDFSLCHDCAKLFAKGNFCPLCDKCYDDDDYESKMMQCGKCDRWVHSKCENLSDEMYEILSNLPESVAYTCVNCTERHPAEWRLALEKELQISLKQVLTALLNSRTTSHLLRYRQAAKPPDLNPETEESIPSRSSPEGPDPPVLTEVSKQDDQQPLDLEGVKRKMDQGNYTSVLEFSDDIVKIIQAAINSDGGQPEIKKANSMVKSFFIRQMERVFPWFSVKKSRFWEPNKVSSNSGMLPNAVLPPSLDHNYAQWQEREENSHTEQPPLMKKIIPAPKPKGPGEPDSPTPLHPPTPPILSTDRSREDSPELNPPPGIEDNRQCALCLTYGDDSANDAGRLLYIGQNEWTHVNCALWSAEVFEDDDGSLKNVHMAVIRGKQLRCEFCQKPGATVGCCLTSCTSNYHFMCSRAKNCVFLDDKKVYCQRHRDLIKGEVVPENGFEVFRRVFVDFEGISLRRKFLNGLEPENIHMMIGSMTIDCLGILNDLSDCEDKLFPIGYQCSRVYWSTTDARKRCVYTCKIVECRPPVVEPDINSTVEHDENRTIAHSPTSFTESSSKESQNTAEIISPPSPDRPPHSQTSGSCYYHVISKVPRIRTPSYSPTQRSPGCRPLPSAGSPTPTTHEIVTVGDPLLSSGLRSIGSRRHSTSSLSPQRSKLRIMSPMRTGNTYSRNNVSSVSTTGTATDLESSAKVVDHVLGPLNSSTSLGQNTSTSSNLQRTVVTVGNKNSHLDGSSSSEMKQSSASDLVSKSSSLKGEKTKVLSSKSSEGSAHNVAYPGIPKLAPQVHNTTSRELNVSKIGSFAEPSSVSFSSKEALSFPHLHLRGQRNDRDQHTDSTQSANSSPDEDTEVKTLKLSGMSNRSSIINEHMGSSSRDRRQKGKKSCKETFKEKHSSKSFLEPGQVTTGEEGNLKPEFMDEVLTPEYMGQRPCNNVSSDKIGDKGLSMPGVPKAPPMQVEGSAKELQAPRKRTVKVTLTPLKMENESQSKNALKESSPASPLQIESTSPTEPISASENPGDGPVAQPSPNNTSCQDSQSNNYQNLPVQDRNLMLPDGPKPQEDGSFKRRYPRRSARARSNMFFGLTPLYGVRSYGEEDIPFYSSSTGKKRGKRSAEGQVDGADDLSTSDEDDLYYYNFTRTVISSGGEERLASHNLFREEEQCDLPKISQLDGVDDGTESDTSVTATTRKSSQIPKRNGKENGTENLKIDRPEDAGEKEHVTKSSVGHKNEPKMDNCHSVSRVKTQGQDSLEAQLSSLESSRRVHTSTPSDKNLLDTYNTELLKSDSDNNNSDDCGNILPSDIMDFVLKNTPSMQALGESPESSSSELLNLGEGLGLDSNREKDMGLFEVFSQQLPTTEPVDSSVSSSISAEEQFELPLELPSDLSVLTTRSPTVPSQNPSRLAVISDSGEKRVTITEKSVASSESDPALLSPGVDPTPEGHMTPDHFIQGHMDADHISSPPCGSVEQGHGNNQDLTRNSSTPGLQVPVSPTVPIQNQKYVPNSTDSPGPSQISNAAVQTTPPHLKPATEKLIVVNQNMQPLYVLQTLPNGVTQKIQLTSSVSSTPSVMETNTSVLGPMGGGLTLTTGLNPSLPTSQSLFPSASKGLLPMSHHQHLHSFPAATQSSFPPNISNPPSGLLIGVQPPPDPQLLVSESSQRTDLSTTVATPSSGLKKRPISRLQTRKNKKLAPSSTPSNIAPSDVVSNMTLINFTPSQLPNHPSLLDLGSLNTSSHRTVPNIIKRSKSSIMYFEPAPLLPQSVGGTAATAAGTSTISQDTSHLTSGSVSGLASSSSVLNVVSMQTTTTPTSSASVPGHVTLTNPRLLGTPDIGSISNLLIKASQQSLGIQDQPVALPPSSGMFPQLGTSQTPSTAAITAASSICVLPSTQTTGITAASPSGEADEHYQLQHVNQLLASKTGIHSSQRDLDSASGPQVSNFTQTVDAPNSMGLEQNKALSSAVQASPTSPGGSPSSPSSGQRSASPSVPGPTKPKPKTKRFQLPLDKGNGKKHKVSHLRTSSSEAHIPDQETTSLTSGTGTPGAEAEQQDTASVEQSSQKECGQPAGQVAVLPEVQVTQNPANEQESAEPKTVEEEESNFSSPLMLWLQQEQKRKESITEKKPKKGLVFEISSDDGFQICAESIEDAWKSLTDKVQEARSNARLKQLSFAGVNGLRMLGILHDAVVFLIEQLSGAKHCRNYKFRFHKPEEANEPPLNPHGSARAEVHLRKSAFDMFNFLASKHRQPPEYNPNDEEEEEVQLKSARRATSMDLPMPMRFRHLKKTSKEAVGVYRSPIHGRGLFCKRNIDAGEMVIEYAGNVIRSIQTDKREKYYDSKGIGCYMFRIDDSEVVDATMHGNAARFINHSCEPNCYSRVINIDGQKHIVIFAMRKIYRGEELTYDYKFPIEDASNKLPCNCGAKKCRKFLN

Target: Histone-lysine N-methyltransferase 2A (Homo sapiens) (UniProt Q03164)
Test: qHTS Fluorescence Polarization Assay for Inhibitors of MLL CXXC domain - DNA interaction
Conditions: MLL-CXXC / FITC-HOXA9 DNA fluorescence polarization; at 115 µM (top of the series)

| SMILES | activity change, negative = inhibition |
| --- | --- |
| O=[As](O)(O)c1cccnc1 | inactive: -1.04% |
| COc1cc(C(=O)NCC2(N3CCOCC3)CCCCC2)cc(Cl)c1OC(C)C | inactive: -13% |
| CS(=O)(=O)c1ccc(Cl)c(NC(=O)COC(=O)C(O)(c2ccccc2)c2ccccc2)c1 | inactive: 8.22% |
| CN(C(=O)Cc1ccccc1)[C@@H]1CC[C@]2(CCCO2)C[C@H]1N1CCCC1 | inactive: 5.05% and inactive: 16% |
| CCOP1(=S)c2c(C)nn(CCC#N)c2N=C(c2ccc(F)cc2)N1C (centres undefined) | inactive: 5.83% |
| O=[N+]([O-])c1ccc2c(c1)nnn2O | inactive: 3.04% |
| NC(=O)Nc1ccc([As](=O)(O)O)cc1 | inactive: -0.126% |
| Nc1ccccc1[As](=O)(O)c1ccccc1 | inactive: 4.66% |
| CCOP1(=S)c2c(C)nn(CCC#N)c2N=C(c2ccccc2F)N1C (centres undefined) | inactive: 1.33% |
| O=P(Nc1nccs1)(Oc1ccccc1)Oc1ccccc1 | inactive: 10.2% |
| O=P(Nc1nccs1)(c1ccccc1)c1nc2ccccc2s1 (centres undefined) | inactive: -11.2% |
| CC(C)NC(=O)NP(=O)(Oc1ccccc1)Oc1ccccc1 | inactive: 7.81% |
| CCN(CC)C(=S)SC(NC=O)C(Cl)(Cl)Cl (centres undefined) | inactive: -15.4% |
| O=[N+]([O-])c1cc([N+](=O)[O-])c(-c2ccn[nH]2)s1 | inactive: 1.52% |
| ClCCSc1nnc(-c2cccnc2)o1 | inactive: 1.19% |
| CC(C)c1ccc(OP(=O)(Nc2ccccn2)Oc2ccccc2F)cc1 (centres undefined) | inactive: 10.9% |
| Cc1ccc(OP(=O)(Nc2ccc([N+](=O)[O-])cn2)Oc2ccc(C)cc2)cc1 | inactive: 5.87% |
| Cc1ccc2nc3c(c(C)c2c1)CC(C(Cl)Cl)S3 (centres undefined) | inactive: 6.13% |
| C[As](=O)(O)c1cccc(C(=O)O)c1 | inactive: -2.63% |
| O=[As](O)(c1ccc(O)cc1)c1ccccc1O | inactive: -3.18% |

| SMILES | activity change, negative = inhibition |
| --- | --- |
| COc1ccc(N/C(=N/P(=O)(N2CCOCC2)N2CCOCC2)N2CCOCC2)cc1 | inactive: -2.93% |
| COc1ccc2nc(NP(=O)(c3ccccc3)c3ccccc3)sc2c1 | inactive: 2.24% |
| COc1cc(I)ccc1[As](=O)(O)O | inactive: -14.4% |
| Cc1c2c(nc3ccccc13)SC(C(Cl)Cl)C2 (centres undefined) | inactive: 8.32% |
| O=C(OC1CN2CCC1CC2)C12CC3CC(CC(C3)C1)C2 (centres undefined) | inactive: 4.14% |
| Cc1cc(=O)[nH]c(N[N+](=O)[O-])n1 | inactive: -4.33% |
| CCC(C)N(CC(C)C)C(=S)SC(NC(C)=O)C(Cl)(Cl)Cl (centres undefined) | inactive: 26.6% |
| O=C(OC1CN2CCC1CC2)c1cccc([N+](=O)[O-])c1 (centres undefined) | inactive: 1.56% |
| CCOC(=O)c1ccc(NC(=O)C(C)(CCl)SC)cc1 (centres undefined) | inactive: 14.3% |
| O=C(COc1ccccc1)OC1CN2CCC1CC2 (centres undefined) | inactive: -2.62% |
| O=C(Nc1ccncc1[N+](=O)[O-])c1ccc([N+](=O)[O-])cc1[N+](=O)[O-] | inactive: 2.15% |
| COP1(=S)c2c(C)nn(CCC#N)c2N=C(c2ccc(F)cc2)N1C (centres undefined) | inactive: -1.72% |
| Cc1cc(SC(NC=O)C(Cl)(Cl)Cl)ncn1 (centres undefined) | inactive: 7.32% |
| O=P(Nc1ccccn1)(c1cccc2ccccc12)c1cccc2ccccc12 | inactive: -5.14% |
| O=[N+]([O-])c1ccc(Nc2ccc(Oc3ccc([N+](=O)[O-])cc3[N+](=O)[O-])cc2)c([N+](=O)[O-])c1 | inactive: -1.07% |
| CCOC(=O)Nc1cccc([As](=O)(O)O)c1 | inactive: -0.731% |
| CCCCOc1ccc(C(=O)NCC2(N3CCCCC3)CCCCC2)cc1OC | inactive: 8.42% |
| Cc1cc(SC(NC(=O)c2ccccc2)C(Cl)(Cl)Cl)nc(C(C)C)n1 (centres undefined) | inactive: -0.568% |
| CCOC(=O)Nc1ccc([As](=O)(O)O)c(O)c1 | inactive: -5.02% |
